Results on 13 compounds are retold here after PubChem BioAssay (NCI).

Assay [1] can be described thus: NCI Yeast Anticancer Drug Screen. Data for the rad50 strain (AID 155).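 Note: 0% = growth of vehicle-only cultures of the same strain.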 The note with it: S. cerevisiae rad50 strain growth inhibition, stronger effect = higher value.
A short description of assay [2]: NCI Yeast Anticancer Drug Screen. Data for the mec2-1 strain (AID 157). The following applies: S. cerevisiae mec2-1 strain, stronger effect = higher value.
Assay [3] can be described thus: NCI Yeast Anticancer Drug Screen. Data for the sgs1 mgt1 strain (AID 161).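 Note: 0% = growth of cultures given vehicle only.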 The following applies: S. cerevisiae sgs1 mgt1 strain, stronger effect = higher value.
Assay [4] can be described thus: NCI Yeast Anticancer Drug Screen. Data for the cln2 rad14 strain (AID 165).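 Note: 0% = growth equal to vehicle treated cultures.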 The following applies: S. cerevisiae cln2 rad14 strain, stronger effect = higher value.
A short description of assay [5]: NCI Yeast Anticancer Drug Screen. Data for the bub3 strain (AID 167). The note with it: S. cerevisiae bub3 mutant strain, stronger effect = higher value.
The nature of assay [6]: NCI Yeast Anticancer Drug Screen. Data for the mlh1 rad18 strain (AID 175). The following applies: S. cerevisiae mlh1 rad18 strain growth inhibition, stronger effect = higher value.
[7] abbreviates: at 5.0 µM (retest, dose inferred, filed as 0.5).
[8] abbreviates: at 50.0 µM (retest, dose inferred, filed as 5.0).

Several values for one entry are separate records, joined by “and”; a condition that tells them apart may be missing. Equal values may be shown once. Only a part is listed here, and it is no random draw. The source holds several records for some structures; these can differ, active in one and inactive in another. Activity calls are given as the source filed them. Cut-off read from the data, not from the text of the source: active = growth inhibition above about 70%; inactive = the rest.

Turning to `CSP1(SC)=NP(Cl)(Cl)=NP(Cl)(Cl)=N1`, the growth inhibition is active: 86.2% in assay [1] (at 50.0 µM); active: 97.4% in assay [2] (at 50.0 µM); active: 86.2% in assay [3] (at 50.0 µM); active: 97.5% in assay [4] (at 50.0 µM); active: 99.5% in assay [5] (at 50.0 µM); active: 85.8% in assay [6] (at 50.0 µM).

With `O=C1C(O)=C([N+](=O)[O-])C(=O)C(O)=C1[N+](=O)[O-]`, the growth inhibition in assay [1] (at 50.0 µM) is inactive: 3.55%; in assay [2] (at 50.0 µM), inactive: 25.6%; in assay [3] (at 50.0 µM), inactive: 10.6%; in assay [4] (at 50.0 µM), inactive: 1.65%; in assay [5] (at 50.0 µM), inactive: 16.9%; in assay [6] (at 50.0 µM), inactive: 31%.

Take `O=[N+]([O-])c1cnc(N(CCCl)CCCl)s1`: the growth inhibition in assay [1] (at 50.0 µM) is inactive: 20.6%; in assay [2] (at 50.0 µM), inactive: 9.05%; in assay [3] (at 50.0 µM), inactive: 20.9%; in assay [4] (at 50.0 µM), inactive: 38%; in assay [5] (at 50.0 µM), inactive: 3.7%; in assay [6] (at 50.0 µM), inactive: 36.2%.

For `O=[N+]([O-])C(Cl)(Cl)/C=C(\Cl)C(Cl)(Cl)[N+](=O)[O-]`, the growth inhibition in assay [1] (setting [7]) was inactive: 35%; in assay [1] (setting [8]) it was active: 95%; in assay [1] (at 50.0 µM), active: 70.2%; in assay [2] (setting [7]), inactive: 24%; in assay [2] (setting [8]) it was active: 100%; in assay [2] (at 50.0 µM), active: 84.2%. Further, the growth inhibition in assay [3] (setting [7]) was inactive: 27%; in assay [3] (setting [8]), active: 95%; in assay [3] (at 50.0 µM) it was active: 90.5%; in assay [4] (setting [7]) it was inactive: 15%; in assay [4] (setting [8]), active: 75%; in assay [4] (at 50.0 µM), inactive: 65.6%. Also, the growth inhibition in assay [5] (setting [7]) is inactive: 20%; in assay [5] (setting [8]), active: 99%; in assay [5] (at 50.0 µM), active: 72.2%; in assay [6] (setting [7]) it was inactive: 32%; in assay [6] (setting [8]), active: 98%; in assay [6] (at 50.0 µM), active: 73.4%.

With `ClCCNC1c2ccccc2CC1Cl` (stereo not given), the growth inhibition is inactive: -7.65% in assay [1] (at 50.0 µM); inactive: 0.1% in assay [2] (at 50.0 µM); inactive: -10.8% in assay [3] (at 50.0 µM); inactive: -19.9% in assay [4] (at 50.0 µM); inactive: -6.6% in assay [5] (at 50.0 µM); inactive: -15.4% in assay [6] (at 50.0 µM).

Consider `Cc1cccc(OP(=S)(Cl)Oc2cccc(C)c2)c1`, for which the growth inhibition was inactive: 35% in assay [1] (at 50.0 µM); inactive: 49.2% in assay [2] (at 50.0 µM); inactive: 13.9% in assay [3] (at 50.0 µM); inactive: 11.7% in assay [4] (at 50.0 µM); inactive: 7.65% in assay [5] (at 50.0 µM); inactive: 12.9% in assay [6] (at 50.0 µM).

Consider `C[Si](C)(C)CCOC(=O)N(CCCl)CCCl`, for which the growth inhibition in assay [1] (at 50.0 µM) is inactive: -17.8%; in assay [2] (at 50.0 µM), inactive: -78.2%; in assay [3] (at 50.0 µM) it was inactive: -24.1%; in assay [4] (at 50.0 µM), inactive: -20.1%; in assay [5] (at 50.0 µM), inactive: -43%; in assay [6] (at 50.0 µM), inactive: -31.6%.

In the case of `COc1ccc(CNCCCl)cc1OC`, the growth inhibition is inactive: -3.2% in assay [1] (at 50.0 µM); inactive: -4.95% in assay [2] (at 50.0 µM); inactive: 1.9% in assay [3] (at 50.0 µM); inactive: -8.5% in assay [4] (at 50.0 µM); inactive: 9.55% in assay [5] (at 50.0 µM); inactive: -19% in assay [6] (at 50.0 µM).

As to `C=CS(=O)(=O)C=C`, the growth inhibition in assay [1] (at 50.0 µM) is inactive: 12.7% and inactive: 11.9%; in assay [2] (at 50.0 µM) it was inactive: -1.55% and inactive: 25.9%; in assay [3] (at 50.0 µM), inactive: 16.8% and inactive: -0.5%; in assay [4] (at 50.0 µM), inactive: 10.8% and inactive: 49%; in assay [5] (at 50.0 µM) it was inactive: 21.9% and inactive: 35.4%; in assay [6] (at 50.0 µM) it was inactive: 3.7% and inactive: 28.1%.

Take `O=C1C(F)=C(NCCCl)C(=O)C(F)=C1NCCCl`: the growth inhibition in assay [1] (at 50.0 µM) was inactive: 0.3%; in assay [2] (at 50.0 µM), inactive: 10.8%; in assay [3] (at 50.0 µM) it was inactive: 19%; in assay [4] (at 50.0 µM) it was inactive: -7.45%; in assay [5] (at 50.0 µM) it was inactive: 24.9%; in assay [6] (at 50.0 µM), inactive: 14%.

For the compound `C/C(=N/Nc1ccc([N+](=O)[O-])cc1[N+](=O)[O-])c1cccc([N+](=O)[O-])c1`, the growth inhibition in assay [1] (at 50.0 µM) is inactive: 6.9%; in assay [2] (at 50.0 µM), inactive: 6.3%; in assay [3] (at 50.0 µM), inactive: 10.1%; in assay [4] (at 50.0 µM), inactive: -27.8%; in assay [5] (at 50.0 µM) it was inactive: 1.65%; in assay [6] (at 50.0 µM) it was inactive: 5.65%.

As for `CC[As](=O)(O)O`, the growth inhibition in assay [1] (at 50.0 µM) is inactive: -1.35%; in assay [2] (at 50.0 µM) it was inactive: 5.9%; in assay [3] (at 50.0 µM) it was inactive: 12.2%; in assay [4] (at 50.0 µM), inactive: -10%; in assay [5] (at 50.0 µM), inactive: 0.8%; in assay [6] (at 50.0 µM), inactive: 1.85%.

Consider `O=C(Nc1ccc([N+](=O)[O-])cc1[N+](=O)[O-])Nc1ccc([N+](=O)[O-])cc1[N+](=O)[O-]`, for which the growth inhibition in assay [1] (at 50.0 µM) is active: 91.9%; in assay [2] (at 50.0 µM) it was active: 85.2%; in assay [3] (at 50.0 µM), active: 94.8%; in assay [4] (at 50.0 µM), inactive: 43.4%; in assay [5] (at 50.0 µM), inactive: 69.4%; in assay [6] (at 50.0 µM) it was active: 82.9%.
